Earlier results on 2 substances are cited in patent US8853224B2 (priority 2006, dated 2014).

Chains of the proteins cited; added tags and fusions are not shown. Lines headed by an entry give the natural chain unless they say otherwise; changes in a name come on top.
UniProt P00491: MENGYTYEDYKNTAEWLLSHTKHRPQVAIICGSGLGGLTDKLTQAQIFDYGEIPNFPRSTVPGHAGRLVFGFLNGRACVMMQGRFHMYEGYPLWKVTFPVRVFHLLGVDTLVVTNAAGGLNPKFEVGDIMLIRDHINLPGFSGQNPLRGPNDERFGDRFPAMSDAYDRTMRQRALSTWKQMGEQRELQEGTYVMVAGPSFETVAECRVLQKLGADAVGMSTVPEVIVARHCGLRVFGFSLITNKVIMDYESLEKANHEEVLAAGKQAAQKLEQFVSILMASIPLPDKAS

In the series the target is human purine nucleoside phosphorylase (HsPNP) (Homo sapiens (Human), UniProt P00491). Conditions: cited from earlier work.

Regarding Immucillin-H, the “Kd values for binding to HsPNP” value is given as “picomolar range”. With DADMe-Immucillin-H, the “Kd values for binding to HsPNP” value is reported as “picomolar range”.
